Values of other authors in patent US20210137911A1, “NOVEL CHRONOTHERAPY BASED ON CIRCADIAN RHYTHMS” (THE TRUSTEES OF THE UNIVERSITY OF PENNSYLVANIA, priority 2014, published 2021).
Like-named read-outs stand apart in the source and are kept apart here.

Conditions: cited from earlier work

Gentamicin
½ Life (half-life of therapeutic compound as listed in Table 1): 3 h

Iron Dextran
½ Life (in vivo): 5 h
